In PubChem BioAssay AID588436 (Broad Institute, 2011):
The list shows a part of the results, in another mix than the full data. Calls of active or inactive are those of the source. Cut-off read from the data, not from the text of the source: active = activation mostly above about 9.7% (no sharp cut-off); inconclusive = no clear call, values can overlap the other calls; inactive = mostly below about 3.7%.

Assay: inducers of Vibrio cholerae quorum light production without autoinducers, primary screen, BH1578 luxS cqsA deficient, single point (AID 588436)
Conditions: V. cholerae BH1578 lux reporter, luminescence, 6 h; at 18.7 µM; stronger effect = higher value

SMILES | activation
CCCOP(=S)(Nc1nc(N)cc(=O)[nH]1)OCCC | inactive: 0.4%
Cc1ccc(NCCc2c([N+](=O)[O-])cc([N+](=O)[O-])cc2[N+](=O)[O-])cc1 | inactive: -0.252%
Nc1cccc2c([As](=O)(O)O)cccc12 | inactive: 0%
COc1cc(C2NCCC3(OCCO3)C2(C)C)cc(OC)c1OC (configuration not stated) | inactive: 0.102%
CCOP(=O)(Nc1cccc2ccccc12)OCC | inactive: -0.311%
O=[As](O)(O)c1cccnc1 | inactive: -0.682%
COc1cc(C(=O)NCC2(N3CCOCC3)CCCCC2)cc(Cl)c1OC(C)C | inactive: -0.373%
CS(=O)(=O)c1ccc(Cl)c(NC(=O)COC(=O)C(O)(c2ccccc2)c2ccccc2)c1 | inactive: 0%
O=C(OC1CN2CCC1CC2)c1ccc(Cl)cc1 (configuration not stated) | inactive: -0.161%
Cc1cccc(OCC(=O)OC2CN3CCC2CC3)c1 (configuration not stated) | inactive: 4.17%
O=[As](O)(c1cccc(O)c1)c1cccc(O)c1 | inactive: 0%
O=[N+]([O-])c1ccc2c(c1)nnn2O | inactive: 1.04%
CN(C)C(=O)c1cc([N+](=O)[O-])cc2c1-c1c(cc([N+](=O)[O-])cc1[N+](=O)[O-])C2=O | inactive: 0%
CN(C(=O)Cc1ccc(Cl)c(Cl)c1)[C@H]1CC[C@@]2(CCCO2)C[C@@H]1N1CCCC1 | inactive: -0.392%
N#CCCN(C(=O)COC(=O)C(O)(c1ccccc1)c1ccccc1)c1ccc(F)cc1 | inactive: 0%
CN(C(=O)Cc1ccccc1)[C@@H]1CC[C@]2(CCCO2)C[C@H]1N1CCCC1 | inactive: -0.256%
CCOP1(=S)c2c(C)nn(CCC#N)c2N=C(c2ccc(F)cc2)N1C (configuration not stated) | inactive: -3.57%
CS(=O)(=O)c1cc([N+](=O)[O-])c2no[n+]([O-])c2c1 | inactive: 0%
CCOP1(=S)c2c(C)nn(CCC#N)c2N=C(c2ccccc2F)N1C (configuration not stated) | inactive: -8.33%
O=P(Nc1nccs1)(c1ccccc1)c1nc2ccccc2s1 (configuration not stated) | inactive: 0%
Nc1ccccc1[As](=O)(O)c1ccccc1 | inactive: 0%
O=C(O)COc1ccc([As](=O)(O)O)cc1[N+](=O)[O-] | inactive: -5.56%
O=P1(Nc2ncccn2)COc2ccccc2OC1 | inactive: 0%
Cc1ccc(OCC(=O)OC2CN3CCC2CC3)cc1 (configuration not stated) | inactive: -0.595%
O=[As](O)(c1cccs1)c1cccs1 | inactive: -0.612%
O=P1(Nc2ccc(Br)cn2)COc2ccccc2OC1 | inactive: 0%

SMILES | activation
NS(=O)(=O)c1cccc(NC(=O)COC(=O)C(O)(c2ccccc2)c2ccccc2)c1 | inactive: 0%
Nc1cccc([As](=O)(O)c2ccccc2)c1 | inactive: -0.39%
Cc1nn(-c2ccccc2)c2c1P(=O)(N1CCOCC1)N(C)C(c1ccccc1)=N2 (configuration not stated) | inactive: 0%
CC1CCC(C(C)C)C(OP(=O)(Nc2ccccn2)c2ccccc2)C1 (configuration not stated) | inactive: -0.292%
Cc1ccc(C(=O)OC2CN3CCC2CC3)cc1 (configuration not stated) | inactive: -1.14%
O=C(/C=C/c1ccccc1)OC1CN2CCC1CC2 (configuration not stated) | inactive: -0.907%
CN(C)C1(CNC(=O)c2ccc(S(C)(=O)=O)cc2)CCCCC1 | inactive: -0.366%
COc1ccccc1CNC(=O)COC(=O)C(O)(c1ccccc1)c1ccccc1 | inactive: 0%
CC1(CBr)Cn2c(nc3ccccc3c2=O)S1 (configuration not stated) | inactive: 3.45%
CC(C)/C=N\N=C(\N)N[N+](=O)[O-] | inactive: 0.136%
CN(C(=O)Cc1ccc(Cl)c(Cl)c1)[C@@H]1CCCC[C@H]1N1CCCC1 | inactive: 8.33%
CCOP(=O)(Nc1ccc(C)cn1)OCC | inactive: 0%
CN(CCCl)Cc1cc(Cl)c(NC2=NCCN2)c(Cl)c1 | inactive: -0.259%
O=P1(Nc2ccccn2)COc2ccccc2OC1 | inactive: 0%
CCC1=CC2Cc3nc4ccc(Cl)cc4c(N)c3C(C1)C2 (configuration not stated) | inactive: -0.874%
CCOP(=O)(NC(=NC(C)c1ccccc1)NC(C)c1ccccc1)OCC (configuration not stated) | inactive: -6.9%
O=P1(N(CCCl)CCCl)NCCC(C(F)(F)F)O1 (configuration not stated) | inactive: -5.26%
Clc1n[nH]nc1-c1nn[nH][15n]1 | inactive: -0.695%
CC(C)(C)C(=O)NC(Sc1ncccn1)C(Cl)(Cl)Cl (configuration not stated) | inactive: 0%
CCOC(=O)c1ccc(NC(=O)C(C)(CCl)SC)cc1 (configuration not stated) | inactive: -0.616%
O=C(OC1CN2CCC1CC2)c1cccc([N+](=O)[O-])c1 (configuration not stated) | inactive: -0.558%
CSc1ccc(Nc2c([N+](=O)[O-])cc([N+](=O)[O-])cc2[N+](=O)[O-])cc1 | inactive: 0%
CCC(C)N(CC(C)C)C(=S)SC(NC(C)=O)C(Cl)(Cl)Cl (configuration not stated) | inactive: 0%
COP1(=S)c2c(C)nn(CCC#N)c2N=C(c2ccc(F)cc2)N1C (configuration not stated) | inactive: 0%
O=C(COc1ccccc1)OC1CN2CCC1CC2 (configuration not stated) | inactive: -0.429%
O=C(Nc1ccncc1[N+](=O)[O-])c1ccc([N+](=O)[O-])cc1[N+](=O)[O-] | inactive: -0.618%

SMILES | activation
O=C(O)C(=O)c1ccc(N(CCCl)CCCl)cc1 | inactive: 0%
CCOC(=O)Nc1cccc([As](=O)(O)O)c1 | inactive: 0%
O=[N+]([O-])c1ccc(Nc2ccc(Oc3ccc([N+](=O)[O-])cc3[N+](=O)[O-])cc2)c([N+](=O)[O-])c1 | inactive: -0.51%
O=P(Nc1ccccn1)(c1cccc2ccccc12)c1cccc2ccccc12 | inactive: -0.267%
Cc1cc(SC(NC=O)C(Cl)(Cl)Cl)ncn1 (configuration not stated) | inactive: -1.41%
CC1CCNP(=O)(N(CCCl)CCCl)O1 (configuration not stated) | inactive: 0%
CCOC(=O)Nc1ccc([As](=O)(O)O)c(O)c1 | inactive: -0.296%
O=C(O)C(O)c1ccc(N(CCCl)CCCl)cc1 (configuration not stated) | inactive: 0%
CCCCOc1ccc(C(=O)NCC2(N3CCCCC3)CCCCC2)cc1OC | inactive: -2.55%
Cc1cc(SC(NC(=O)c2ccccc2)C(Cl)(Cl)Cl)nc(C(C)C)n1 (configuration not stated) | inactive: -0.387%
COP(=O)(OC)N1CC1c1ccccc1 (configuration not stated) | inactive: 0%
COC(=O)C1(C)COP(=O)(N2CCCCCC2)OC1 (configuration not stated) | inactive: 1.09%
CC(C)c1ccc(OP(=O)(Nc2ccccn2)Oc2ccccc2F)cc1 (configuration not stated) | inactive: 0%
ClCCSc1nnc(-c2cccnc2)o1 | inactive: -0.449%
CC(C)NC(=O)NP(=O)(Oc1ccccc1)Oc1ccccc1 | inactive: 0.345%
CCN(CC)C(=S)SC(NC=O)C(Cl)(Cl)Cl (configuration not stated) | inactive: 0%
O=C(OC1CN2CCC1CC2)c1cccc2[nH]cnc12 (configuration not stated) | inactive: -0.103%
O=[N+]([O-])c1cc([N+](=O)[O-])c(-c2ccn[nH]2)s1 | inactive: -0.098%
O=[As](O)(c1ccc(O)cc1)c1ccccc1O | inactive: -0.39%
C[As](=O)(O)c1cccc(C(=O)O)c1 | inactive: 0.0115%
O=[N+]([O-])c1ccc(-c2cc([N+](=O)[O-])c(O)c([N+](=O)[O-])c2)cc1 | inactive: -3.33%
COc1cc(C(=O)NCC2(N3CCOCC3)CCCCC2)ccc1OCC(C)C | inactive: -5.2%
Cc1ccc2nc3c(c(C)c2c1)CC(C(Cl)Cl)S3 (configuration not stated) | inactive: 0%
Cc1ccc(OP(=O)(Nc2ccc([N+](=O)[O-])cn2)Oc2ccc(C)cc2)cc1 | inactive: -1.25%
COc1ccc(N/C(=N/P(=O)(N2CCOCC2)N2CCOCC2)N2CCOCC2)cc1 | inactive: 2.08%
O=C(OC1CN2CCC1CC2)C12CC3CC(CC(C3)C1)C2 (configuration not stated) | inactive: 0.465%

SMILES | activation
Cc1cc(=O)[nH]c(N[N+](=O)[O-])n1 | inactive: -0.482%
COc1ccc2nc(NP(=O)(c3ccccc3)c3ccccc3)sc2c1 | inactive: -0.488%
COc1cc(I)ccc1[As](=O)(O)O | inactive: 0.724%
O=P1(N(CCCl)CCCl)Nc2ccccc2N1 | inactive: -0.834%
O=P1(N(CCCl)CCCl)OCCCN1CCCl (configuration not stated) | inactive: 1.58%
Nc1cc(N)c2nonc2c1[N+](=O)[O-] | inactive: 0%
CC(C)CC(=O)NC(Sc1ccc(Cl)cc1)C(Cl)(Cl)Cl (configuration not stated) | inactive: -0.414%
Oc1ccccc1CNc1ccccn1 | inactive: 0%
O=C(NC(Sc1ccncn1)C(Cl)(Cl)Cl)c1ccccc1 (configuration not stated) | inactive: -0.104%
NC(=O)c1cc([N+](=O)[O-])cc([N+](=O)[O-])c1N | inactive: -0.267%
CN(C(=O)Cc1ccc(Cl)c(Cl)c1)[C@H]1CCCC[C@H]1N1CCCC1 | inactive: 0%
Cc1ccc(N/C(=N/P(=O)(N2CCOCC2)N2CCOCC2)N2CCOCC2)cc1 | inactive: -0.451%
COc1ccccc1OP(=O)(Nc1ccc(C)cn1)Oc1ccccc1OC | inactive: -0.828%
Cc1ccc(OP(=O)(Nc2nccs2)Oc2ccc(C)cc2)cc1 | inactive: 0%
CN1CCCC(OC(=O)C(c2ccccc2)c2ccccc2)C1 (configuration not stated) | inactive: -4.76%
Clc1ccc(Cl)c(NC2=NCC(CBr)S2)c1 (configuration not stated) | inactive: 0.818%
CCN(N=Nc1nonc1N)c1nonc1N | inactive: 0%
Nc1cccc2ccc([As](=O)(O)O)cc12 | inactive: 0.585%
CC(=O)Nc1ccc([As](=O)(O)O)cc1 | inactive: 1.02%
O=C(O)c1ccccc1[As](=O)(O)O | inactive: -0.593%
CCCC1OP(N)(=O)OCC1CC (configuration not stated) | inactive: 2.7%
O=P(Nc1nc2ccc(Cl)cc2s1)(c1ccccc1)c1ccccc1 | inactive: -0.907%
CN(C)P(=O)(N(C)C)n1c(Nc2ccccc2)nnc1-c1ccccc1 | inactive: -5%
Cc1cc(SC(NC(=O)c2ccc(F)cc2)C(Cl)(Cl)Cl)ncn1 (configuration not stated) | inactive: -0.282%
